Assay results: ChEMBL document CHEMBL1134623, “Design and synthesis of a series of (2R)-N(4)-hydroxy-2-(3-hydroxybenzyl)-N(1)- [(1S,2R)-2-hydroxy-2,3-dihydro-1H-inden-1-yl]butanediamide derivatives as potent, selective, and orally bioavailable aggrecanase inhibitors” (J Med Chem, 2001)

Target: T1, Interstitial collagenase (Homo sapiens, UniProt P03956)
T1 sequence (P03956 whole entry): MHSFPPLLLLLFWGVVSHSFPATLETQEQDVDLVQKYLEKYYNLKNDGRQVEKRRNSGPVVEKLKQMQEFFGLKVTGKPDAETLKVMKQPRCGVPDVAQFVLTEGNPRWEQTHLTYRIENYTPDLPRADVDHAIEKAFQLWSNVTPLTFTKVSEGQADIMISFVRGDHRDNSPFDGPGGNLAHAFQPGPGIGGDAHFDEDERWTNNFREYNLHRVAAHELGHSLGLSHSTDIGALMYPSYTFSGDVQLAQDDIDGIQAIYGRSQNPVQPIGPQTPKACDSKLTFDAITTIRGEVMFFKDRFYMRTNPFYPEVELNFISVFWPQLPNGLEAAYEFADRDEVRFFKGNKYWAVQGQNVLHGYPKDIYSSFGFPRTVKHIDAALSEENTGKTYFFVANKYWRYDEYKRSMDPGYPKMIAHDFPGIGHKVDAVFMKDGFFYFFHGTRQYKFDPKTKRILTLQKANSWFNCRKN
Assay: Inhibition of matrix metalloprotease-1

Ki: < 1 nM
SMILES: CNC(=O)[C@H](Cc1ccc(OC)cc1)NC(=O)[C@@H](CC(=O)NO)CC(C)C
